Data published in patent US20090105278A1, “Selective inhibitors of human corticosteroid syntheses” (Universitat Des Saarlandes, priority 2004, published 2009).

The chains behind the UniProt entries cited, without tags or fusion partners. Where a name states a change or a piece, a line headed by the entry shows the natural chain unless it says otherwise.
UniProt P11511: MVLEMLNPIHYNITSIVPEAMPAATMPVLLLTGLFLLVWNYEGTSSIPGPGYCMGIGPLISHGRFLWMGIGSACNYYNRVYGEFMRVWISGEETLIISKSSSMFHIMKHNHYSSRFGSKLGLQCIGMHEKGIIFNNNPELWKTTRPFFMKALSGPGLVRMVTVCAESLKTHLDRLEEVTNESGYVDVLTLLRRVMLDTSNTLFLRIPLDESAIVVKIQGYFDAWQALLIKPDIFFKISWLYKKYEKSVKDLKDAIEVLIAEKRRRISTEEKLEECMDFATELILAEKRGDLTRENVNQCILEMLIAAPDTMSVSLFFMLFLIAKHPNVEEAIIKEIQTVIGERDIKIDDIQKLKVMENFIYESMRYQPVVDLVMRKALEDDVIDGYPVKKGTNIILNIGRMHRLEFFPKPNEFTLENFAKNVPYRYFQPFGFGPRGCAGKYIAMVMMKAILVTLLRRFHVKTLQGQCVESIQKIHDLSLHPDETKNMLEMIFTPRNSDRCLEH

Experiments:
[1] = biological target: T1, human CYP11B1 (Homo sapiens, UniProt P15538); test: V79 MZh 11B1 cells inhibition test; details: read-out: IC50 V79 11B1 hCYP11B1; hamster fibroblasts which express human CYP11B1; deoxycorticosterone substrate 100 nM
T1 sequence (P15538 25-503): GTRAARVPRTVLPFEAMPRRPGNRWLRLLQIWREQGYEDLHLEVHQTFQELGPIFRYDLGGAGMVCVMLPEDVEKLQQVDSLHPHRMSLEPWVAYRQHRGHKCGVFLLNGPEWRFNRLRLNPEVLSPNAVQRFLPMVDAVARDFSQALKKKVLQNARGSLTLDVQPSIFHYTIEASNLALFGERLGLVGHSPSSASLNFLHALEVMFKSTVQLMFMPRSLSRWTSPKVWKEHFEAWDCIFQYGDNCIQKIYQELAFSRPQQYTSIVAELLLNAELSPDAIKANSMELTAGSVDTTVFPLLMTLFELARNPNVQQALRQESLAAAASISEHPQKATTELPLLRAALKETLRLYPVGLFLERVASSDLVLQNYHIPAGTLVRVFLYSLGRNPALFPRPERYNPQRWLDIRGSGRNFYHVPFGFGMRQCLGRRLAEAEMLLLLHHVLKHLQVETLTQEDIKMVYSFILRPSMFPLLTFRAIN

[2] = biological target: T2, human CYP11B2 (Homo sapiens, UniProt P19099); test: V79 MZh 11B2 cells inhibition test; assay type: cell-based; design: expressed in transfected cells; host or cells: V79 MZh11B2 (Chinese hamster lung fibroblasts); details: hamster fibroblasts which express human CYP11B2; deoxycorticosterone substrate 100 nM; read-out: IC50 V79 11B2 hCYP11B2
T2 sequence (P19099 25-503): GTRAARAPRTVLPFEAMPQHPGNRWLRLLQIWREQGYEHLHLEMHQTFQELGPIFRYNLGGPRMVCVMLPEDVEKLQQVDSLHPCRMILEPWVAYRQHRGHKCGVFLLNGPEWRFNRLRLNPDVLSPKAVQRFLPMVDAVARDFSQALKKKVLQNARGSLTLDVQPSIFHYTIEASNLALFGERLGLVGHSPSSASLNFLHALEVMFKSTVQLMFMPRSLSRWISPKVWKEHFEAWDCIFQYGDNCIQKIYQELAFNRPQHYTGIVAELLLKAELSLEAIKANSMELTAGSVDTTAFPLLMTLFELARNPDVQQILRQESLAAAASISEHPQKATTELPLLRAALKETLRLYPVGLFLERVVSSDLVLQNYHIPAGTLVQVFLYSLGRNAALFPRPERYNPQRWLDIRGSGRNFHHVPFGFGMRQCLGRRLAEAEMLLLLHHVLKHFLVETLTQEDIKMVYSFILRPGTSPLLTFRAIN

[3] = biological target: T3, human placental CYP19 (Homo sapiens, UniProt P11511); test: IC50 of CYP19 (human placental microsomes); assay type: biochemical
T3 construct: The enzyme was obtained from the microsome fraction of fresh human placenta; from tissue; host or cells: human placenta, microsomal fraction

5-[(Z)-(5-Chloro-2,3-dihydro-1H-indene-1-ylidene)methyl]-1H-imidazolium oxalate [Compound 48b]
pIC50 [1]: 7.70 and 7.71 | pIC50 [2]: 8.40 and 8.43

5-[(Z)-(5-Bromo-2,3-dihydro-1H-indene-1-ylidene)methyl]-1H-imidazolium oxalate [Compound 49b]
pIC50 [3]: 7.00

5-[(Z)-(5-Fluoro-2,3-dihydro-1H-indene-1-ylidene)methyl]-1H-imidazolium oxalate [Compound 47b]
pIC50 [3]: 7.70 | pIC50 [1]: 7.95 | pIC50 [2]: 7.86

5-[(Z)-3,4-Dihydronaphth-1(2H)-ylidenemethyl]-1H-imidazolium oxalate [Compound 41b]
pIC50 [1]: 8.48 | pIC50 [2]: 8.02

pIC50: −log10 of the molar value. Several values for one entry are separate records, joined by “and”; a condition that tells them apart may be missing. Equal values may be shown once.
